Structures can show the parent of a compound that is named as a salt.
Tested on: RENCA cells
Assay: Anti-tumor response of tumor-bearing mice (RENCA tumor model)
Format: in vivo, BALB/c mice
Settings: G4: Isotype 5 mpk + Pazopanib 100 mpk qd; Mean ± SEM; day 17
Protocol: The anti-tumor therapeutic response of tumor-bearing mice to treatment with one of three regimens: monotherapy with a murine anti-mouse PD-1 monoclonal antibody (Anti-PD1), monotherapy with pazopanib and combination therapy with these two agents administered concurrently.
A cohort of 8 weeks old female BALB/c mice were implanted with 1×10^6 RENCA cells. When the tumors were ˜115 cubic mm, the tumor-bearing mice were randomized to the following 9 treatment groups of 12 mice per group: (1) 5 mg/Kg Isotype+Vehicle control group; (2) 1 mg/Kg Anti-PD1+Vehicle control; (3) 5 mg/Kg Anti-PD1+Vehicle control; (4) once daily pazopanib+5 mg/Kg Isotype control; (5) once daily pazopanib+5 mg/Kg Anti-PD1; (6) once daily pazopanib+1 mg/Kg Isotype control; (7) once daily pazopanib+1 mg/Kg Anti-PD1; (8) twice daily pazopanib+5 mg/Kg Isotype and (9) twice daily pazopanib+5 mg/Kg Anti-PD1. The Vehicle control was 0.5% hydroxypropylemethylcellulose, 0.1% Tween-80 in distilled water, pH adjusted to 1.3-1.5 with 0.1N hydrochloric acid. The Isotype control was mouse IgG1 specific for an adenoviral hexon protein (clone TC31.27F11). Anti-PD1 was administered to treatment groups 2 and 7 at 1 mg/kg i.p., or groups 3, 5, and 9 at 5 mg/Kg i.p. every 5 days for each of 5 cycles. […]

With `Cc1ccc(Nc2nccc(N(C)c3ccc4c(C)n(C)nc4c3)n2)cc1S(N)(=O)=O` [Pazopanib, 5-[[4-[(2,3-dimethyl-2H-indazol-6-yl)methylamino]-2-pyrimidinyl]amino]-2-methylbenzenesulfonamide monohydrochloride] the “Tumor Size (D17)” value was 1,555 ± 162 mm^3.

Source: patent US20160303231A1, “TREATING CANCER WITH A COMBINATION OF A PD-1 ANTAGONIST AND A VEGFR INHIBITOR” (GLAXOSMITHKLINE LLC, priority 2013, published 2016)
